PubChem BioAssay AID588549 (Broad Institute, 2011)
About 780 (0.22%) of roughly 360,000 compounds were called active. All entries are inconclusive by the source's own rule. Clear calls are listed elsewhere. No stated cut-off is given here; in the data, active means inhibition above about 8.5% (passing the limit was not always enough); inconclusive means no clear call, values can overlap the other calls.

System: Mycobacterium tuberculosis FadD28 fatty-acid-AMP ligase
Assay: inhibitors of FadD28 bisubstrate probe binding, primary screen, biochemical, fluorescence polarization, single point (AID 588549)
Conditions: at 12.5 µM, hits give high values

Row | Structure (SMILES) | inhibition
1 | CCN(/C(=N/P(=O)(N1CCOCC1)N1CCOCC1)N1CCOCC1)c1ccc(OC)cc1 | inconclusive: 3.04%
